Source: patent US11906524B2, “Urea biosensors and uses thereof” (Duke University, priority 2015, dated 2024)

Assay: Urea titration of emission intensity spectra (Nanodrop3300) with ratiometric analysis, singly labeled conjugates
Assay type: binding
Description: Determination of emission intensity spectra.
Ratiometric analysis of urea binding. […] 2
For a single urea-binding site, the fractional saturation is given by
[formula] where [L] is the ligand (urea) concentration and Kd the dissociation constant, ^trueKd for ytrue.
[formula] where ^appIλ2 and ^satIλ2 are the emission intensities of the monochromatic signal at wavelength λ2 of the ligand-free and ligand-bound protein, respectively.

Kd (ctUBP6 Acrylodan conjugate, nb = no binding, read-out: ^trueKd): 2300 µM
Kd (ctUBP6 Badan conjugate, ^d = noisy data and or bad fit, read-out: ^appKd): 2500 µM
Kd (ctUBP6 Badan conjugate, ^d = noisy data and or bad fit, read-out: ^trueKd): 2700 µM
B1: ctUBP6 W95C: ctUBP6 95C cysteine mutant (SEQ ID NO: 49), tested as Acrylodan and Badan conjugates (conjugate)
chain: MVEEPVDNKPGTDTSAEDTIKVGILHSLSGTMAISEVSLKDAELMAIEEINQAGGLLGKKIEPVIEDGASDWPTFAEKAKKLLQNDKVATVFGCCTSASRKAVLPVFEENNGLLWYPVQYEGMESSPNIFYTGAAPNQQIVPAVEWLLENKGKRFFLLGSDYVFPRTANKIIKAQLSAIGGELIAEEYTPLGHTDYSTIVNKIKTAKPDVVFNTLNGDSNVAFFKQLKDAGITSEDITVCSVSVAEEEIRGIGAENIKGHLVSWNYYQTTDTPENKEFVEKYKSKYGSDRVTDDPIEAAYIAVHLWAEAVKKAGSFEVEKVKEAAKGLEFKAPEGLVKIEGENQHLWKPVRIGEVQEDGLIKEIWSTSEAVRPDPYLKTYDWAKGLSDGGSHHHHHH
modifications: Acrylodan or Badan conjugate; ctUBP6_95C (95C substitution mutant with signal peptide replaced with M and a GGSHHHHHH at C-terminus)

Like-named read-outs stand apart in the source and are kept apart here.
